Literature values, collected in patent US8598128B2, “Fructosylated puerarin, and preparation method and use thereof” (priority 2010, dated 2013).

Details: literature; cited from earlier work

For “semi-emulsified glycosyl-α-(1,4)-puerarin”, which “water solubility compared with puerarin” value is on record?
The value was 12 times.
